One molecule from paper PMC7719162, “Positioning of an unprecedented spiro[5.5]undeca ring system into kinase inhibitor space” (Scientific Reports, 2020) can be followed below.

The assay addresses T1, EIF2AK3 (Homo sapiens, UniProt Q9NZJ5).
T1 construct: purchased Reaction Biology Corp
T1 sequence (Q9NZJ5 30-1116): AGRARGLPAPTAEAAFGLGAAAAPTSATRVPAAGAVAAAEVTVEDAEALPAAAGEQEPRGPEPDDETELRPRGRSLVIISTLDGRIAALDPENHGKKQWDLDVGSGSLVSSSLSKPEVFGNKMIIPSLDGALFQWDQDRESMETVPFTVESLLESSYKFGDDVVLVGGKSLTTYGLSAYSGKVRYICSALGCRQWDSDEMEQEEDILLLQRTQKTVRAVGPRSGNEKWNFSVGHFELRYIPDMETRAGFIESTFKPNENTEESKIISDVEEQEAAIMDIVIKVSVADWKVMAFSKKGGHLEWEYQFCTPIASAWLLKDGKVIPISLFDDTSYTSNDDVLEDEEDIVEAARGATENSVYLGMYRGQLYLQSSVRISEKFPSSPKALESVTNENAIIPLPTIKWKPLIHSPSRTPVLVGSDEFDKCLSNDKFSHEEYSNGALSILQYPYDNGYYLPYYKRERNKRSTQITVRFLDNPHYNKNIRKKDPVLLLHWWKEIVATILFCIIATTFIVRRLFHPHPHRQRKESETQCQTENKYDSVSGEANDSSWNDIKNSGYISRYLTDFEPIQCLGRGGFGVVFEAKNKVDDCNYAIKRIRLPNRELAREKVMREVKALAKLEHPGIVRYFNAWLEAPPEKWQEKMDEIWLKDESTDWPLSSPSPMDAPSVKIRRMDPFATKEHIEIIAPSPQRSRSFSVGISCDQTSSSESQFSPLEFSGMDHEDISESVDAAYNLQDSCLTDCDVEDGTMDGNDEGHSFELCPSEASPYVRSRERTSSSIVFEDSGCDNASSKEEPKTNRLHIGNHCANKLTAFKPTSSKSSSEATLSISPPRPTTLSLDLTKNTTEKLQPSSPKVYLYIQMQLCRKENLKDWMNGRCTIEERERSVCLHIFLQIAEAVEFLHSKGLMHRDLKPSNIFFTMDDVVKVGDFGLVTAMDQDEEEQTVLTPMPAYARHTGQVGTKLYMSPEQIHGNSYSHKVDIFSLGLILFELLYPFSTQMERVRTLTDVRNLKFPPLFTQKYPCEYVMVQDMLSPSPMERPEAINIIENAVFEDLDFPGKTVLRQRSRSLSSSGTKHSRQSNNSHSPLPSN
The assay is described as follows: Kinase panel assay (radiolabelled). The note with it: control GSK-2606414. In kind it is biochemical. How it is done:
Every inhibitory activity of tested compounds was measured by radiolabelled method of Reaction Biology Corp). The radiolabelled ATP ([γ-^33P] ATP) replaced a substrate with ^33P-phosphorylated substrate so that the activity of a kinase was measured from the radiolabelled phosphorylated substrate. Kinase panel assay was tested at 30 μM testing compounds with an ATP concentration of 10 μM and a substrate concentration of 10 μM. % Residual activity against GSK3β was measured at 10 uM compounds 1 and 2. […] Curve fits of control compounds were performed where the enzyme activities at the highest concentration of compounds were less than 65%. The concentration of DMSO was controlled and raw data, % kinase activity was calculated relative to DMSO controls.

Turning to `Cn1cc(-c2ccc3c(c2)CCN3C(=O)Cc2cccc(C(F)(F)F)c2)c2c(N)ncnc21` [GSK-2606414, reference compound], it took 0.54 nM to reach half-maximal inhibition (IC50).
